B1: RAC-alpha serine/threonine-protein kinase (Homo sapiens), P31749 (parent)
chain: MSDVAIVKEGWLHKRGEYIKTWRPRYFLLKNDGTFIGYKERPQDVDQREAPLNNFSVAQCQLMKTERPRPNTFIIRCLQWTTVIERTFHVETPEEREEWTTAIQTVADGLKKQEEEEMDFRSGSPSDNSGAEEMEVSLAKPKHRVTMNEFEYLKLLGKGTFGKVILVKEKATGRYYAMKILKKEVIVAKDEVAHTLTENRVLQNSRHPFLTALKYSFQTHDRLCFVMEYANGGELFFHLSRERVFSEDRARFYGAEIVSALDYLHSEKNVVYRDLKLENLMLDKDGHIKITDFGLCKEGIKDGATMKTFCGTPEYLAPEVLEDNDYGRAVDWWGLGVVMYEMMCGRLPFYNQDHEKLFELILMEEIRFPRTLGPEAKSLLSGLLKKDPKQRLGGGSEDAKEIMQHRFFAGIVWQHVYEKKLSPPFKPQVTSETDTRYFDEEFTAQMITITPPDQDDSMECVDSERRPHFPQFSYSASGTA
partner: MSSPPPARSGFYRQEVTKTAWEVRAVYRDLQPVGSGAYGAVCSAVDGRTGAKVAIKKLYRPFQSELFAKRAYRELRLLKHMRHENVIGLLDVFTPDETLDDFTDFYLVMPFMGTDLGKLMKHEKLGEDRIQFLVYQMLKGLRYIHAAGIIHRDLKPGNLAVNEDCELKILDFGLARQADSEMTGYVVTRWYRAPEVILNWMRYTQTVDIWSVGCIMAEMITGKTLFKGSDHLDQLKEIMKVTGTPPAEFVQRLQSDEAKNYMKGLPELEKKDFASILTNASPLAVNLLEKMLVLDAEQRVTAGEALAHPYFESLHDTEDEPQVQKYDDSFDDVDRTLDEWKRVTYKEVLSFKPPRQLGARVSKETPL
B2: RAC-alpha serine/threonine-protein kinase (Homo sapiens), P31749 (parent)
chain: B1 chain
partner: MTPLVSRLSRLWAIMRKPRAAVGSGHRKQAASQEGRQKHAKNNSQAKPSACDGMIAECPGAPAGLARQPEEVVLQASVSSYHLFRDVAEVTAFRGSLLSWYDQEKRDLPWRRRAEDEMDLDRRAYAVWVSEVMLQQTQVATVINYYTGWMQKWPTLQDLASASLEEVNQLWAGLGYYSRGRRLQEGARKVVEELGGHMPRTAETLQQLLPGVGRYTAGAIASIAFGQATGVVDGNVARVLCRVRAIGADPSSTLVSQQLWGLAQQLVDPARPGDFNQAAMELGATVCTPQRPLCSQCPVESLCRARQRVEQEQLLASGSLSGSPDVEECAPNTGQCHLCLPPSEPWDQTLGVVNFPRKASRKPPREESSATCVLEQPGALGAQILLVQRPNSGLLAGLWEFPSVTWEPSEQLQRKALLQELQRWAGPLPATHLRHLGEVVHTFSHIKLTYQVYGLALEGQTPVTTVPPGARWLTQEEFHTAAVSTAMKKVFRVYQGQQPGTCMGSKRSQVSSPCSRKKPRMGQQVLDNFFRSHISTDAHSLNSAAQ
B3: RAC-alpha serine/threonine-protein kinase (Homo sapiens), P31749 (parent)
chain: B1 chain
partner: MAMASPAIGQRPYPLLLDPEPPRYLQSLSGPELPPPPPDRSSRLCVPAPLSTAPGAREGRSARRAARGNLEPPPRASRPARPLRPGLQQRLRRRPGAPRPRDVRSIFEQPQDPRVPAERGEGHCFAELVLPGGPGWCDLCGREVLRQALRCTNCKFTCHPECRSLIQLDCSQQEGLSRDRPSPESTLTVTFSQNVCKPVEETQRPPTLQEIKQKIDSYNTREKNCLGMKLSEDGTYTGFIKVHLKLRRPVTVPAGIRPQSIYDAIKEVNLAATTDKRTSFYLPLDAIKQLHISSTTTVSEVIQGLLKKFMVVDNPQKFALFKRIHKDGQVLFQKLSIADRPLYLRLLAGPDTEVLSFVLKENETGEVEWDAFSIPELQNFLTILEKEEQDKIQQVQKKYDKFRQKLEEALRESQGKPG
B4: RAC-alpha serine/threonine-protein kinase (Homo sapiens), P31749 (parent)
chain: B1 chain
partner: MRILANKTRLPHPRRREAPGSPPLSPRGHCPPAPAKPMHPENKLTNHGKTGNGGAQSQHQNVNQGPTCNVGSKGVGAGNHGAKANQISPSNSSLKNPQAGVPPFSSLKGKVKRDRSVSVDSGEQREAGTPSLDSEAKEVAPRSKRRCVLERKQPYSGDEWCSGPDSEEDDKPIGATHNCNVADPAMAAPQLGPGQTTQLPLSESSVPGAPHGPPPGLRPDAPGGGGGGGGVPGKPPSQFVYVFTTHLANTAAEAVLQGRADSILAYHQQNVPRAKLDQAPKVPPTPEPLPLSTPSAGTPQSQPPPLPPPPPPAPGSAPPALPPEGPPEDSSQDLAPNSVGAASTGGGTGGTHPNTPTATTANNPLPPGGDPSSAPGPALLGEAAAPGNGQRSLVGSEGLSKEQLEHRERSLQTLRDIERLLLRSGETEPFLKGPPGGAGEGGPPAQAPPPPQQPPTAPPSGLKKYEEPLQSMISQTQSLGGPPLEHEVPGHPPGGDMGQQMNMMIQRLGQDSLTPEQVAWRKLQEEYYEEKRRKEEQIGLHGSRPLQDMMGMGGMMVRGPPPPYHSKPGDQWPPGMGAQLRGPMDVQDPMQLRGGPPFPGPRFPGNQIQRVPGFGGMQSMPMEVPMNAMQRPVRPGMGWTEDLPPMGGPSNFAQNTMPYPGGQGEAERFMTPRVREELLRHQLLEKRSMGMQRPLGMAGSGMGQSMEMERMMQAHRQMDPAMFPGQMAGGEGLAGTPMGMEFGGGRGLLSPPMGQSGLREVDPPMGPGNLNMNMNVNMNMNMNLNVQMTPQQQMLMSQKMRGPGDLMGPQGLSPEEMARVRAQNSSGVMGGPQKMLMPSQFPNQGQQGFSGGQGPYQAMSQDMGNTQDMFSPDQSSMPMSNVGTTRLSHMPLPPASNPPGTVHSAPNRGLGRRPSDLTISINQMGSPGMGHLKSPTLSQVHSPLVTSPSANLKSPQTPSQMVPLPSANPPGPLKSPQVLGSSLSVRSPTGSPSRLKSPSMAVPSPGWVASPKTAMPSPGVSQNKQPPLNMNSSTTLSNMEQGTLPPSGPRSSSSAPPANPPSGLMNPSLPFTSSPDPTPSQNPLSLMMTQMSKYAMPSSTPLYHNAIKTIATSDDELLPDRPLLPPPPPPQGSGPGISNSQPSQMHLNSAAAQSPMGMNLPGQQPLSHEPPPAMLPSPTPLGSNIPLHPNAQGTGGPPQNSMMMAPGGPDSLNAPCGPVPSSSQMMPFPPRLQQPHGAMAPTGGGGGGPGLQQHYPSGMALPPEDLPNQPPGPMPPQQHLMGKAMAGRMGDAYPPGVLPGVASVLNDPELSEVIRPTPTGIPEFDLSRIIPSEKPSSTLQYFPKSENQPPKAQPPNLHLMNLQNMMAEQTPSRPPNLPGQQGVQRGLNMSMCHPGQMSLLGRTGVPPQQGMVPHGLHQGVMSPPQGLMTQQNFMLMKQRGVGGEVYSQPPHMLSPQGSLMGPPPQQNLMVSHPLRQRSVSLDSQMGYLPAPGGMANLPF
B5: RAC-alpha serine/threonine-protein kinase (Homo sapiens), P31749 (parent)
chain: B1 chain
partner: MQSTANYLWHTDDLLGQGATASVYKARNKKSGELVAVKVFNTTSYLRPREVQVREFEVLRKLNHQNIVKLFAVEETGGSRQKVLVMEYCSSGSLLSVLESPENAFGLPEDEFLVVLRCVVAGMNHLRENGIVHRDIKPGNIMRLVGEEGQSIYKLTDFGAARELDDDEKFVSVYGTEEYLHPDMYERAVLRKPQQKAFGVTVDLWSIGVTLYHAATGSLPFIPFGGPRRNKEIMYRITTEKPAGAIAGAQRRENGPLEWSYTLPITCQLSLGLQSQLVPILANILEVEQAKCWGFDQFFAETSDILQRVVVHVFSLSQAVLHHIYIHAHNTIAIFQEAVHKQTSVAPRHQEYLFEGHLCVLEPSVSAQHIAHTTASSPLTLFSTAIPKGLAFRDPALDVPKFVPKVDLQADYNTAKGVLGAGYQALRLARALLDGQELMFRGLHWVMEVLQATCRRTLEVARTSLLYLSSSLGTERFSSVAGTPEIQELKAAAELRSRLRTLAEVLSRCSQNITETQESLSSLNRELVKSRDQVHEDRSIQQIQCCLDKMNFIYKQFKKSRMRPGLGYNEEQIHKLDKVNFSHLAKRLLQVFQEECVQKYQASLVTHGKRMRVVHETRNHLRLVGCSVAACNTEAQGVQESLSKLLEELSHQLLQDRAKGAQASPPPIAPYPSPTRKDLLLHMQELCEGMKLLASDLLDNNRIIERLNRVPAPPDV
B6: RAC-alpha serine/threonine-protein kinase (Homo sapiens), P31749 (parent)
chain: B1 chain
partner: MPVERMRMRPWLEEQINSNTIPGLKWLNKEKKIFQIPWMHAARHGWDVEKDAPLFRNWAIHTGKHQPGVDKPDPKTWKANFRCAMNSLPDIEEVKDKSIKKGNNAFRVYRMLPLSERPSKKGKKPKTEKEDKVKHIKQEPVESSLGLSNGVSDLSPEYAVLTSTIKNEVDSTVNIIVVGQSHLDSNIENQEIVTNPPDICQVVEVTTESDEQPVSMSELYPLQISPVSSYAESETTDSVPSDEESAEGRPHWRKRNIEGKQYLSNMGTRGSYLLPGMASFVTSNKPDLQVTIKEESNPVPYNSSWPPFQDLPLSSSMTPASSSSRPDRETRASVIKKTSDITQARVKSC
B7: RAC-alpha serine/threonine-protein kinase (Homo sapiens), P31749 (parent)
chain: B1 chain
partner: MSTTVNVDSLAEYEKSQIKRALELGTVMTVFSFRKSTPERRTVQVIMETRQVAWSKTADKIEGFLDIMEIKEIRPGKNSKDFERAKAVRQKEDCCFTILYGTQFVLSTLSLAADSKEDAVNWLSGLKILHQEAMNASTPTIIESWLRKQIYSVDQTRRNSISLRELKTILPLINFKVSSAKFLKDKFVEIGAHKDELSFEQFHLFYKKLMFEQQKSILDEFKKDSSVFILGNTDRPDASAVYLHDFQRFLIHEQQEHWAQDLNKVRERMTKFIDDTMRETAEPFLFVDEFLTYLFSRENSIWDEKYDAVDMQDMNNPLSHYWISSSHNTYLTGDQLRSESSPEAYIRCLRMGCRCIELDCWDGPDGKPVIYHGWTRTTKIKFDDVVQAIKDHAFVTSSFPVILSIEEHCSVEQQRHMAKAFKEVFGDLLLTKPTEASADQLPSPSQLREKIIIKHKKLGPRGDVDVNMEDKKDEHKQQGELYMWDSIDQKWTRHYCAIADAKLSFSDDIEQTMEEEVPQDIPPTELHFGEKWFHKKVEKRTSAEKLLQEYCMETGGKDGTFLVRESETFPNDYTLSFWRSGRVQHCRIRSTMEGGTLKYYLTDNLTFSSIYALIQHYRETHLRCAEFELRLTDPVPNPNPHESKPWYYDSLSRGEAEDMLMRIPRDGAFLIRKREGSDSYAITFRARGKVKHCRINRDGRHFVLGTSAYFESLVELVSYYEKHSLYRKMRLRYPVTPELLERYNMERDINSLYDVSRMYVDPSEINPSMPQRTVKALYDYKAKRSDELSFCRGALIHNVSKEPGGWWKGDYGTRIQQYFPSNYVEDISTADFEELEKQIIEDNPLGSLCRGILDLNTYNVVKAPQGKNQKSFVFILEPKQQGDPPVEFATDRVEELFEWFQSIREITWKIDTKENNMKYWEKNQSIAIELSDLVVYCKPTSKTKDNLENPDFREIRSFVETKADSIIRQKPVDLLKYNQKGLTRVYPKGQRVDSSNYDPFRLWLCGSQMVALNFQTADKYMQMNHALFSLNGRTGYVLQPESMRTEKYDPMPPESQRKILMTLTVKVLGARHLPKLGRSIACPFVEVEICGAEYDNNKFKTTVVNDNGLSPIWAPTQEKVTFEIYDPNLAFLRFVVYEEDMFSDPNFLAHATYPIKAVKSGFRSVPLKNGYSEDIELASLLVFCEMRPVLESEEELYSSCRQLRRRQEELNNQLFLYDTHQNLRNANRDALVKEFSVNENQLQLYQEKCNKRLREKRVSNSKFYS
B8: RAC-alpha serine/threonine-protein kinase (Homo sapiens), P31749 (parent)
chain: B1 chain
partner: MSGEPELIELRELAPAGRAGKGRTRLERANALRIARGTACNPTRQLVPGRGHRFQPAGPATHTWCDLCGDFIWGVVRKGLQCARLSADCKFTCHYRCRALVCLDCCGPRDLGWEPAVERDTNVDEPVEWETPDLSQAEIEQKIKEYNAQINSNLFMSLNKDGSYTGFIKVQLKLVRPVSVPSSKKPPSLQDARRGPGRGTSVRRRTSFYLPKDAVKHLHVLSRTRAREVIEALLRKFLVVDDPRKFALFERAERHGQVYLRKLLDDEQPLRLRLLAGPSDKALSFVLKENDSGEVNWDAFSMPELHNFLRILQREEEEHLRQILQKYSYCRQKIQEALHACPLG

One assay covers variants of B1. As to conditions: with mk12_human MAPK12, P53778.
On to E17K, for which the “effect of a mutation on the interaction” value was “causing an interaction”.

The next assay covers variants of B2. As to conditions: with mutyh_human MUTYH.
For E17K, the “effect of a mutation on the interaction” value is reported as “causing an interaction”.

The variants in another assay derive from B2. Conditions: with mutyh_human MUTYH. This is another data set of the same source.
Regarding E17K, the “effect of a mutation on the interaction” value was “increasing interaction strength”.

In another assay the parent is B3. As to conditions: with rasf5_human RASSF5, Q8WWW0.
In the case of E17K, the “effect of a mutation on the interaction” value is “causing an interaction”.

The variants in a further assay derive from B3. As to conditions: with rasf5_human RASSF5, Q8WWW0. This is another data set of the same source.
Turning to E17K, the “effect of a mutation on the interaction” value is given as “increasing interaction strength”.

Variants of B4 are the subject of the next assay. Conditions: with bcl9l_human BCL9L.
As for E17K, the “effect of a mutation on the interaction” value is listed as “causing an interaction”.

The variants in the next assay derive from B5. Conditions: with ikke_human IKBKE.
Take E17K: the “effect of a mutation on the interaction” value was “with no effect”.

In another assay the parent is B6. As to conditions: with irf2_human IRF2, P14316.
E17K: the “effect of a mutation on the interaction” value was “with no effect”.

Variants of B7 are the subject of a further assay. Conditions: with plcg2_human PLCG2, P16885.
Consider E17K, for which the “effect of a mutation on the interaction” value is reported as “with no effect”.

A further assay covers variants of B8. As to conditions: with rasf1_human RASSF1, Q9NS23.
On to E17K, for which the “effect of a mutation on the interaction” value is on record as “causing an interaction”.

Another assay covers variants of B8. As to conditions: with rasf1_human RASSF1, Q9NS23. This is another data set of the same source.
E17K: the “effect of a mutation on the interaction” value was “increasing interaction strength”.
